# Results taken from ChEMBL document CHEMBL5247649, “Comparative Efficacy and Selectivity of Pharmacological Inhibitors of DYRK and CLK Protein Kinases” (J Med Chem, 2023).
# The chains behind the UniProt entries cited, without tags or fusion partners. Where a name states a change or a piece, a line headed by the entry shows the natural chain unless it says otherwise.
# UniProt P49841: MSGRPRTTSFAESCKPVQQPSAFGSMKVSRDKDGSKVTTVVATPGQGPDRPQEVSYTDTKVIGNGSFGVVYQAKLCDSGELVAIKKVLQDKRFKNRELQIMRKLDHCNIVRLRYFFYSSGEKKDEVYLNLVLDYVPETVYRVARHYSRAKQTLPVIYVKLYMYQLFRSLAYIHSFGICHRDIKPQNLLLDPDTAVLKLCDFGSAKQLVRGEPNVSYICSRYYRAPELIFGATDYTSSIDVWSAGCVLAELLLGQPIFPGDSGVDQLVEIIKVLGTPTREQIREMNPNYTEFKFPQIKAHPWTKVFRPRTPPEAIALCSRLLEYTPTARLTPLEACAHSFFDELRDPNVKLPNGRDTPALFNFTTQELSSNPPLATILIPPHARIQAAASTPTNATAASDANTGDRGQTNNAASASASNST
# UniProt P49759: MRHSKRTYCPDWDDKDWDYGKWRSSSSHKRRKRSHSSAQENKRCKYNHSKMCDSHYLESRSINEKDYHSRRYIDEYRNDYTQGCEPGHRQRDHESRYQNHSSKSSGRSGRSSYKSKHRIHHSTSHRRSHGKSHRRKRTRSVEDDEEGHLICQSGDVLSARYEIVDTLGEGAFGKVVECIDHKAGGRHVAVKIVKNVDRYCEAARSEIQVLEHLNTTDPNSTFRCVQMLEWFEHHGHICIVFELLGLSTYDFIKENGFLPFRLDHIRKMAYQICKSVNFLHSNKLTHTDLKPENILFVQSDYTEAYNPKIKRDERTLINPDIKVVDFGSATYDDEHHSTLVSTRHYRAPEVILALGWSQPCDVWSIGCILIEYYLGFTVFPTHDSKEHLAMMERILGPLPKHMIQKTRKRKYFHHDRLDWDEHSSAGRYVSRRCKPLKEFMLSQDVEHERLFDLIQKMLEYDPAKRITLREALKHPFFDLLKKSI
# UniProt P49760, whole entry: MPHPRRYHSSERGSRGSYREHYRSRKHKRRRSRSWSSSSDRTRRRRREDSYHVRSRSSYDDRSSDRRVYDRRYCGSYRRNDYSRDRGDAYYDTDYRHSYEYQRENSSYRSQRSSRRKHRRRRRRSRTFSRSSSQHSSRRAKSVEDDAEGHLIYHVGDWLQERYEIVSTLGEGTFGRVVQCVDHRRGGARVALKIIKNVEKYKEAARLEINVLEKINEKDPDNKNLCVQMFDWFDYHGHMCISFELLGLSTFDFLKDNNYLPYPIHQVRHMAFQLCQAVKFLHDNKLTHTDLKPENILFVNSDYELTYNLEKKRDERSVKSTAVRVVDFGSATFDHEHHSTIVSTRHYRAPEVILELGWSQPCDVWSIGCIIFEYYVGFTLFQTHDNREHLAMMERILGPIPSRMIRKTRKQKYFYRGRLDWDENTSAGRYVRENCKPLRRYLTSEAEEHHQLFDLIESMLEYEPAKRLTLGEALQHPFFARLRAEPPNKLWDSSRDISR
# UniProt P49761: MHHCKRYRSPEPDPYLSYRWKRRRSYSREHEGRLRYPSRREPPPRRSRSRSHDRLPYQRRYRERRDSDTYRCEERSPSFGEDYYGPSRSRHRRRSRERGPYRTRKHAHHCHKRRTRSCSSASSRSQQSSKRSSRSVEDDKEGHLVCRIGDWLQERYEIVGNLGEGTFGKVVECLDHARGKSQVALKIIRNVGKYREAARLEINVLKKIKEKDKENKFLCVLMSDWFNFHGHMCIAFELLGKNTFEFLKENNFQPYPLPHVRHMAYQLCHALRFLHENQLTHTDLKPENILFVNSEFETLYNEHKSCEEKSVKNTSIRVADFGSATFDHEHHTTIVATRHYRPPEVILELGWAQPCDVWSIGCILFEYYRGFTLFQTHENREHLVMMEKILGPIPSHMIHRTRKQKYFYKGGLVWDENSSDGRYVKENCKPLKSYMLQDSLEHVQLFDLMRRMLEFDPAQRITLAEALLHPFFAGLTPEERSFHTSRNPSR
# UniProt Q00535, whole entry: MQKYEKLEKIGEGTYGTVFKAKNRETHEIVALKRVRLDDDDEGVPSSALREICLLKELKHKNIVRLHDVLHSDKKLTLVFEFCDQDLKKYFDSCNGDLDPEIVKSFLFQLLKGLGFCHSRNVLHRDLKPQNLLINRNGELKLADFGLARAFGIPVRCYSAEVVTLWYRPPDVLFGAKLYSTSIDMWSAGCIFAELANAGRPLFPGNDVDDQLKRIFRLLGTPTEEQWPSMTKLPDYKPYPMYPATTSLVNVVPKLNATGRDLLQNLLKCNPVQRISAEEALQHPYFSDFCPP
# UniProt P49674: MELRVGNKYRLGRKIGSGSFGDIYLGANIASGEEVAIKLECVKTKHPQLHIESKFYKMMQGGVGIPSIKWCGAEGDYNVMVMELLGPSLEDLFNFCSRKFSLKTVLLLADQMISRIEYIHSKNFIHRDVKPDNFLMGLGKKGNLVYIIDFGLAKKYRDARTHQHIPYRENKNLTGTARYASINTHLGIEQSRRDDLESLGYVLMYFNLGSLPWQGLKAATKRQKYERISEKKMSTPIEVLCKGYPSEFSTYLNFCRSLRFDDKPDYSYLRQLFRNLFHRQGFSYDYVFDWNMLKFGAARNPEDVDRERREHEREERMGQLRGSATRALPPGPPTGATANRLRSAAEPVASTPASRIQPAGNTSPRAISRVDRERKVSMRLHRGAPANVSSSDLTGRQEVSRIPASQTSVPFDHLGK
# Experiments:
# [1] = target: T1, Glycogen synthase kinase-3 beta (Homo sapiens, UniProt P49841)
# [2] = target: T1, Glycogen synthase kinase-3 beta; test: biochemical
# [3] = target: T2, Dual specificity protein kinase CLK1 (Homo sapiens, UniProt P49759); test: biochemical
# [4] = target: T3, Dual specificity tyrosine-phosphorylation-regulated kinase 3 (Homo sapiens, UniProt O43781); test: biochemical
# T3 sequence (O43781 whole entry): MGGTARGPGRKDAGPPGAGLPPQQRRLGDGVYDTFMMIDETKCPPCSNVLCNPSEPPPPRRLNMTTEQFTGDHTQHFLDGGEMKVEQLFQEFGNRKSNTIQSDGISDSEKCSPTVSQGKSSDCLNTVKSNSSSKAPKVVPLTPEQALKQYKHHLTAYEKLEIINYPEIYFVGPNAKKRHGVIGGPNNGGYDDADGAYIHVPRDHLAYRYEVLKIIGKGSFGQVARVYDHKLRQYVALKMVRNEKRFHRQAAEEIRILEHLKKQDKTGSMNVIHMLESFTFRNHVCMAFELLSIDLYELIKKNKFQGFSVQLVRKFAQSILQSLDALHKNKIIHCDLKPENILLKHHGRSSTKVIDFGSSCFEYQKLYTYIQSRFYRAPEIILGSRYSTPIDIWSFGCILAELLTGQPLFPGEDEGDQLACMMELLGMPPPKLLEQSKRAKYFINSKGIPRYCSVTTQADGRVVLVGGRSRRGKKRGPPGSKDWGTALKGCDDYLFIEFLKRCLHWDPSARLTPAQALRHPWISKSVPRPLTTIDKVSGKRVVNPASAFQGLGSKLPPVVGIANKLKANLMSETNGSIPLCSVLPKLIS
# [5] = target: Dual specificity protein kinase CLK2 (Homo sapiens, UniProt P49760); test: biochemical
# [6] = target: T2, Dual specificity protein kinase CLK1; test: biochemical; remark: listed apart in the source
# [7] = target: T2, Dual specificity protein kinase CLK1
# [8] = target: Dual specificity protein kinase CLK3 (Homo sapiens, UniProt P49761); test: biochemical
# [9] = target: Cyclin-dependent kinase 5/CDK5 activator 1 (Homo sapiens, UniProt Q00535); test: biochemical; format: cell-based, Sf9
# [10] = target: Casein kinase I isoform epsilon (Homo sapiens, UniProt P49674); test: biochemical
# [11] = target: Dual specificity tyrosine-phosphorylation-regulated kinase 1A (Homo sapiens, UniProt Q13627); test: biochemical
# [12] = target: T4, Dual specificity tyrosine-phosphorylation-regulated kinase 4 (Homo sapiens, UniProt Q9NR20); test: biochemical
# T4 sequence (Q9NR20 whole entry): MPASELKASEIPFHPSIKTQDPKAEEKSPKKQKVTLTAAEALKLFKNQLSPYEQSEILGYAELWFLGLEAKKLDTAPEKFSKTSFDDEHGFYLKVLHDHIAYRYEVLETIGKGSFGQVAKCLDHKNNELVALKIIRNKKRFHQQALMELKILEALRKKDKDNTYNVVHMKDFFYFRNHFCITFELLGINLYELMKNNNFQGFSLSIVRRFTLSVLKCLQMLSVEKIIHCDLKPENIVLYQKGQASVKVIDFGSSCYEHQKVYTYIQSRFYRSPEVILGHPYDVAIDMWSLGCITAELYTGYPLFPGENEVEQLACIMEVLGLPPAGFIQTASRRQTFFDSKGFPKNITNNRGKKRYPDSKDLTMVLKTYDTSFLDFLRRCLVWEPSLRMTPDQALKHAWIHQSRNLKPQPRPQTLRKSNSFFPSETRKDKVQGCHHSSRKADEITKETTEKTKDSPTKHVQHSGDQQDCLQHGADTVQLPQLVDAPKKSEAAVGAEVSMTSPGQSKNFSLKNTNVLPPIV
# [13] = target: T5, Dual specificity tyrosine-phosphorylation-regulated kinase 2 (Homo sapiens, UniProt Q92630); test: biochemical
# T5 sequence (Q92630 whole entry): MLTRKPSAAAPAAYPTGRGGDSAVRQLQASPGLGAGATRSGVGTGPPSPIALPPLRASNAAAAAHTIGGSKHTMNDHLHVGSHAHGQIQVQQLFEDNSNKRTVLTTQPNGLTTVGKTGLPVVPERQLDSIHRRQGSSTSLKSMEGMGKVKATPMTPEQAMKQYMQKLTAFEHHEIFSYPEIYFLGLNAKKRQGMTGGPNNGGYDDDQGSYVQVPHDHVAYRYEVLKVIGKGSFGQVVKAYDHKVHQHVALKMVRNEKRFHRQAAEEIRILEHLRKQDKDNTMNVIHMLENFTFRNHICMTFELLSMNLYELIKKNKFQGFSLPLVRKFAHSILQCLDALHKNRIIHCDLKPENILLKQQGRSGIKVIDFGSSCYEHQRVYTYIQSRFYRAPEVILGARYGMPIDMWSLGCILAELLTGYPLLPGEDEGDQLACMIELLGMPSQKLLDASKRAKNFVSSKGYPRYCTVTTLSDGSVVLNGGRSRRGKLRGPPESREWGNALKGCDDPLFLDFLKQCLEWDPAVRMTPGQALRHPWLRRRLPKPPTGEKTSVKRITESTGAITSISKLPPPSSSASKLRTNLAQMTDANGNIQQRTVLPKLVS
smiles,measurement,setting,value
Cn1cc(-c2ccc3cnc(NC(=O)C4CCN(S(C)(=O)=O)CC4)cc3c2)cn1,Kd,[1],3.75 nM
same,IC50,[2],197 nM
O=C1NC(Nc2ccccc2)=N/C1=C\c1ccc2c(c1)OCO2,IC50,[3],51.5 nM
same,IC50,[4],> 10000 nM
same,IC50,[5],1890 nM
same,IC50,[6],77.2 nM
same,Kd,[7],8.51 nM
Cn1cc(-c2ccc3occ(-c4cccc(-c5ccncc5)c4)c3n2)cn1,IC50,[5],114 nM
same,IC50,[6],104 nM
same,IC50,[8],> 10000 nM
[H]/N=C(\N/C(=N/[H])NCCCCCCNC(=N)NC(=N)Nc1ccc(Cl)cc1)Nc1ccc(Cl)cc1 [CHLORHEXIDINE],IC50,[9],> 10000 nM
same,IC50,[4],> 10000 nM
same,IC50,[6],> 10000 nM
same,IC50,[2],> 10000 nM
same,IC50,[10],> 10000 nM
same,IC50,[8],> 10000 nM
same,IC50,[11],> 10000 nM
same,IC50,[12],> 10000 nM
same,IC50,[13],> 10000 nM
COc1ccc2c(c1)[nH]c1c(C)nccc12 [HARMINE],IC50,[9],> 10000 nM
Cc1nc2ccc(-c3cc(N)nc(N)c3)nc2n1C(C)C,IC50,[3],7.3 nM
same,IC50,[6],16.1 nM
same,Kd,[7],0.228 nM
CN1Cc2nn(C)c(C#N)c2-c2cnc3[nH]c(F)c(c3c2)-c2cn(nc2C(F)(F)F)CCCC1=O,IC50,[6],1120 nM
same,Kd,[7],41.8 nM
